This passage reports IC50 results from patent US7166618B2, “Nitrosated and nitrosylated cyclooxygenase-2 inhibitors, compositions and methods of use” (NitroMed, Inc., priority 1999, dated 2007).

pIC50: −log10 of the molar value.

This assay has as its target T1, ovine COX-2 (Ovis aries, UniProt P79208).
T1 sequence (P79208 17-603): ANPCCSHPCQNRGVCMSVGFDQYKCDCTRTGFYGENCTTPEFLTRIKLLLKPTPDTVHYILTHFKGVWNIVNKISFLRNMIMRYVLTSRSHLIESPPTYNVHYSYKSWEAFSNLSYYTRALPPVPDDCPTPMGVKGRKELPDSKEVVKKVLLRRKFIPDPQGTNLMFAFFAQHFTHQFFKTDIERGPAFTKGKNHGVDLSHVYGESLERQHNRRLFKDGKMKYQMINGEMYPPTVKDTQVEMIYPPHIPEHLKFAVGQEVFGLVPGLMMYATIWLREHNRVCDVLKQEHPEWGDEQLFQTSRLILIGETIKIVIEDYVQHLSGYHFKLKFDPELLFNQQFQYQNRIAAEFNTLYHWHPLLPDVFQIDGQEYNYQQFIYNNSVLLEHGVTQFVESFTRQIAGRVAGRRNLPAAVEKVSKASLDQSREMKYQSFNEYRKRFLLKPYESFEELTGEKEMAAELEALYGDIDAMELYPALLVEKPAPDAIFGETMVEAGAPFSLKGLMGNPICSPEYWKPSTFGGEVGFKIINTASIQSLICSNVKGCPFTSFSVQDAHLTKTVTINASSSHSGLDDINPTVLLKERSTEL
The format is biochemical.

Consider “1-(3-(4-Fluorophenyl)-7-(nitrooxymethyl)(3a-hydroimidazolo(1,2-a)pyridin-2-yl))-4-(methylsulfonyl)benzene [Example 5b]”, for which the pIC50 is 4.48.
